# Assay results reported in ChEMBL document CHEMBL1125058 (J Med Chem, 1990).
# By UniProt entry, the sequences of proteins in these tests, tags left out. Where a name states a change or a piece, a line headed by the entry shows the natural chain unless it says otherwise.
# UniProt P11511: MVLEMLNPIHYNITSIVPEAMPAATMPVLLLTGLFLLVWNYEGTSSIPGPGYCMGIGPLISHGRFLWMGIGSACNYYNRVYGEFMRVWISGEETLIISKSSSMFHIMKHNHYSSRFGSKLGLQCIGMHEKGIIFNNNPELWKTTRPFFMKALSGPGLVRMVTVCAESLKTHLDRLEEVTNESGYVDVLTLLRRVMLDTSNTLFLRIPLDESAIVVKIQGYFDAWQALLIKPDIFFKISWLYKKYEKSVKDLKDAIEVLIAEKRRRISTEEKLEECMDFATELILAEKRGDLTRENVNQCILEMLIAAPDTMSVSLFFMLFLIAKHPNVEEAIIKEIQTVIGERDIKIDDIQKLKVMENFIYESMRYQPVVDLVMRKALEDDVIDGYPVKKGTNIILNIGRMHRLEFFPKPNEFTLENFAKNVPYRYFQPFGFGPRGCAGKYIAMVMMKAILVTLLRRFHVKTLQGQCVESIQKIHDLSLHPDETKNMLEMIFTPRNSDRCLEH
# Molecular target: Aromatase (Homo sapiens, UniProt P11511)
row,IC50 [µM],SMILES
1,10,CCCCCCCCCCN1C(=O)CC[C@](CC)(c2ccncc2)C1=O
2,40,CCCCN1C(=O)CC[C@](CC)(c2ccncc2)C1=O
3,6,CCC[C@]1(c2ccncc2)CCC(=O)NC1=O
4,4,CCCC[C@]1(c2ccncc2)CCC(=O)NC1=O
